The subject of this experiment is Toxoplasma gondii strains expressing FLUC. Kind of experiment: microbe, parasite or virus in culture. The experiment is classed as cell-based. On the procedure:
The ability of bicyclic azetidines to inhibit different strains of T. gondii was tested using a series of firefly luciferase (FLUC)-tagged lines. […] A similar strategy was utilized to derive FLUC expressing lines from additional T. gondii strains MAS (type 4) and FOU (type 6).

Structures are written as SMILES.

The EC50 is the concentration at which the effect is half-maximal.

Turning to `COc1ccc(NC(=O)N2CCCCN3[C@H](CN(C)C)[C@H](c4ccc(C#Cc5ccccc5)cc4)[C@@H]3C2)cc1` [Compound 15, (8R,9S,10S)-10-((dimethylamino)methyl)-N-(4-methoxyphenyl)-9-(4-(phenylethynyl)phenyl)-1,6-diazabicyclo[6.2.0]decane-6-carboxamide], where the note is “Toxoplasma gondii, genotype 3, read-out: Average EC50 ± S.D.”, the EC50 came to 34.3 nM. Under “strains ME49, CTG, MAS, RUB, FOU, VAND”, the “EC50 values of all strains relative to each other and historical standards” value is at most 2 fold.
